This is a selection; strong and weak results do not stand in their true shares. Results filed as inconclusive are left out. Calls of active or inactive are those of the source.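 How the source made its calls: active means viability at or below 27.92% in each of two runs, the all-compound median minus 4 SD; inconclusive means no clear call, values can overlap the other calls; inactive means the rest.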
Experiment: growth suppression of PTEN-deleted HCT116, pilot screen, cell-based, HCT116 clonal line, CellTiter-Glo (AID 824);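 further: 0% = 20 µM Hyamine control and 100% = vehicle cell control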
Conditions: 60 h, at 10 µM, active compounds read low

Question: For `Cc1ccc(NP(C)(=O)Oc2ccccc2)c(C)c1` (stereo not given), which viability is on record?
Answer: The viability was inactive: 101%.

Question: Which viability does the source give for `CP(=O)(NC(=O)Nc1ccccc1)Oc1ccccc1` (stereo not given) here?
Answer: The viability was inactive: 92.7%.

Question: With `Cc1ccc(C)c(NP(C)(=O)Oc2ccccc2)c1` (stereo not given) as the compound, how does the viability read?
Answer: The viability was inactive: 94.4%.

Question: With `CP(=O)(Nc1ccc2c(c1)OCCO2)Oc1ccccc1` (stereo not given) as the compound, how does the viability read?
Answer: The viability was inactive: 100%.

Question: Which viability does the source give for `CP(=O)(Oc1ccccc1)N1CCOC1=O` (stereo not given) here?
Answer: Its viability is inactive: 96.8%.

— PubChem BioAssay AID824 (SRMLSC, 2007)
